Measurements published in publication PMC6026870, “Selective induction of cancer cell death by VDAC1‐based peptides and their potential use in cancer therapy” (Molecular Oncology, 2018).

T1: Human hexokinase I (HK‐I), recombinant (human, UniProt P19367 1-917, fluorescently labeled using a NanoTemper BLUE protein‐labeling kit (in the MST))
T1 chain: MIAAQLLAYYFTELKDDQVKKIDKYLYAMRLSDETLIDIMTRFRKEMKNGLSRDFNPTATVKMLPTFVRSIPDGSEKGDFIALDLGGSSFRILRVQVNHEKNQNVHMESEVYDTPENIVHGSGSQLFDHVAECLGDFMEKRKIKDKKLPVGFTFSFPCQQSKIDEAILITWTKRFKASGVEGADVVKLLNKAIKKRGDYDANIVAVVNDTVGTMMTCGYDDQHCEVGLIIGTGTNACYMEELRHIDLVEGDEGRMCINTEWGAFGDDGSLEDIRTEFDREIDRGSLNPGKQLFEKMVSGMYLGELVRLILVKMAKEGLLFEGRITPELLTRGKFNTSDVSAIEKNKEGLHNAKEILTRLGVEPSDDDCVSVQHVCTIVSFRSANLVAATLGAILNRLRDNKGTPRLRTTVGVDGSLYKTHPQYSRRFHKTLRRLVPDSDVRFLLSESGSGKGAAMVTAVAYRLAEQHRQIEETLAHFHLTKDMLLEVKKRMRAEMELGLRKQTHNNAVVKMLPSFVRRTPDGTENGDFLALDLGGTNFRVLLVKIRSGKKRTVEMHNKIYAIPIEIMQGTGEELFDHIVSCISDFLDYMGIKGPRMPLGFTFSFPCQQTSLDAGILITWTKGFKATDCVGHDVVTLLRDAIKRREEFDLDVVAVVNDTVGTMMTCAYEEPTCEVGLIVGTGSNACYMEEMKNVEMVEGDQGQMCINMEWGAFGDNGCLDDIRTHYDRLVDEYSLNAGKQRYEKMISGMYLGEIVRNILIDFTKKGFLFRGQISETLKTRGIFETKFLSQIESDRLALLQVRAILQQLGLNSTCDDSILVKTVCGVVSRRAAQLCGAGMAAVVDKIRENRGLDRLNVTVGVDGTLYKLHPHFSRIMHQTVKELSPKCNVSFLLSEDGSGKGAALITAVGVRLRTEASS

B1: Retro‐Tf‐D‐LP4 (peptide)
peptide: KWTWKNSNGATWALNVATELKKEWTWSHRPYIAH
modifications: retro‐inverso peptide with amino acids in D‐configuration; which residues are D is marked in bold in the paper's printed sequence
B2: Antp‐LP4 (peptide)
peptide: RQIKIWFQNRRMKWKKSWTWEKKLETAVNLAWTAGNSNKWTWK
notes: amino acids added to form a loop‐shaped tryptophan zipper (N‐terminal arm); amino acids added to form a loop‐shaped tryptophan zipper (C‐terminal arm); 43 residues as printed; source: synthetic peptide (GL Biochem, > 85% purity)

Test system: U‐87MG
Test: not given
Type: cell-based
Conditions: 6 h
Description: Leukemia cells, U‐937, MEC‐1 cells (4 × 10^5 or 8 × 10^5 cells/sample, respectively), as well as other leukemia or suspension cell lines, were incubated in 200 μL serum‐free medium with various concentrations of the peptide for 90 min at 23–25 °C, collected by centrifugation (500 g, 5 min), washed with PBS, and analyzed for cell death. Adherent cells (6 × 10^5 mL^−1 at 70–80% confluence) were incubated with the peptide of interest in 500 μL serum‐free recommended culture medium for 3–6 h at 37 °C and 5% CO2. The cells were then trypsinized, centrifuged (1500 g, 5 min), washed with PBS, and analyzed for the desired activity. Following peptide treatment, cells were subjected to cell death analysis. Propidium iodide (PI) staining was performed by addition of PI (6.25 μg·mL^−1) to the cells and immediate analysis by the EC800 Flow cytometer Analyzer–Eclipse or the FACS caliber (Becton‐Dickinson, San Jose, CA, USA) and BD […] PRO software (BD Biosciences, San Jose, CA, USA).
Forty‐one cancerous and five noncancerous cell lines were used in this study to examine the cell‐killing activity of the VDAC1‐based peptides Antp‐LP4, Tf‐LP4, Tf‐D‐LP4, R‐Tf‐D‐LP4, N‐Ter‐Antp, and others (Figs 1, 2, 3 and Tables 1, 2, 3). For each line, cells were incubated with different peptide concentrations, and cell death was determined by PI staining and FACS analysis (Figs 1, 2, 3). In addition, for each cell line, the concentration of the peptide inducing 50% cell death (EC50) was determined (Tables 1, 2, 3).

`CC[C@@H](C)[C@@H](NC(=O)[C@@H](CCCCN)NC(=O)[C@H](NC(=O)[C@@H](CCC(N)=O)NC(=O)[C@@H](CCCNC(=N)N)NC(=O)[C@@H](CC(C)C)NC(=O)CNC(=O)[C@@H](Cc1ccccc1)NC(=O)CNC(=O)[C@@H](Cc1ccc(O)cc1)NC(=O)CNC(=O)[C@@H](CCCCN)NC(=O)[C@H](NC(=O)[C@H](N)Cc1ccccc1)[C@H](C)O)[C@H](C)CC)C(=O)N[C@H](Cc1c[nH]c2ccccc12)C(=O)N[C@H](Cc1ccccc1)C(=O)N[C@H](CCC(N)=O)C(=O)N[C@H](CC(N)=O)C(=O)N[C@H](CCCNC(=N)N)C(=O)N[C@H](CCCNC(=N)N)C(=O)N[C@H](CCSC)C(=O)N[C@H](CCCCN)C(=O)N[C@H](Cc1c[nH]c2ccccc12)C(=O)N[C@H](CCCCN)C(=O)N[C@H](CCCCN)C(=O)O` [D‐∆1‐18N‐Ter‐Antp] and `CC[C@@H](C)[C@@H](NC(=O)[C@@H](CCCCN)NC(=O)[C@H](NC(=O)[C@@H](CCC(N)=O)NC(=O)[C@@H](CCCNC(=N)N)NC(=O)[C@@H](CC(C)C)NC(=O)CNC(=O)[C@@H](Cc1ccccc1)NC(=O)CNC(=O)[C@@H](Cc1ccc(O)cc1)NC(=O)CNC(=O)[C@@H](CCCCN)NC(=O)[C@H](NC(=O)[C@@H](Cc1ccccc1)NC(=O)[C@H](N)C(C)C)[C@H](C)O)[C@H](C)CC)C(=O)N[C@H](Cc1c[nH]c2ccccc12)C(=O)N[C@H](Cc1ccccc1)C(=O)N[C@H](CCC(N)=O)C(=O)N[C@H](CC(N)=O)C(=O)N[C@H](CCCNC(=N)N)C(=O)N[C@H](CCCNC(=N)N)C(=O)N[C@H](CCSC)C(=O)N[C@H](CCCCN)C(=O)N[C@H](Cc1c[nH]c2ccccc12)C(=O)N[C@H](CCCCN)C(=O)N[C@H](CCCCN)C(=O)O` [D‐∆(1‐16)N‐Ter‐Antp] are within error of each other in EC50: 6.7 ± 1.4 µM for the first, 7.7 µM for the second.

First: CC[C@H](C)[C@H](NC(=O)[C@H](CCCCN)NC(=O)[C@@H](NC(=O)[C@H](CCC(N)=O)NC(=O)[C@H](CCCNC(=N)N)NC(=O)[C@H](CC(C)C)NC(=O)CNC(=O)[C@H](Cc1ccccc1)NC(=O)CNC(=O)[C@H](Cc1ccc(O)cc1)NC(=O)CNC(=O)[C@H](CCCCN)NC(=O)[C@@H](NC(=O)[C@H](Cc1ccccc1)NC(=O)[C@@H](NC(=O)[C@H](CC(=O)O)NC(=O)[C@H](CCCNC(=N)N)NC(=O)[C@H](C)NC(=O)[C@H](CO)NC(=O)[C@H](CCCCN)NC(=O)CNC(=O)[C@H](CC(C)C)NC(=O)[C@H](CC(=O)O)NC(=O)[C@H](C)NC(=O)[C@H](Cc1ccc(O)cc1)NC(=O)[C@@H](NC(=O)[C@@H]1CCCN1C(=O)[C@@H]1CCCN1C(=O)[C@@H](NC(=O)[C@H](C)NC(=O)[C@@H](N)CCSC)C(C)C)[C@@H](C)O)C(C)C)[C@@H](C)O)[C@@H](C)CC)C(=O)N[C@@H](Cc1c[nH]c2ccccc12)C(=O)N[C@@H](Cc1ccccc1)C(=O)N[C@@H](CCC(N)=O)C(=O)N[C@@H](CC(N)=O)C(=O)N[C@@H](CCCNC(=N)N)C(=O)N[C@@H](CCCNC(=N)N)C(=O)N[C@@H](CCSC)C(=O)N[C@@H](CCCCN)C(=O)N[C@@H](Cc1c[nH]c2ccccc12)C(=O)N[C@@H](CCCCN)C(=O)N[C@@H](CCCCN)C(=O)O [N‐Ter‐Antp]
Second: CC[C@H](C)[C@H](NC(=O)[C@H](CCCCN)NC(=O)[C@@H](NC(=O)[C@H](CCC(N)=O)NC(=O)[C@H](CCCNC(=N)N)NC(=O)[C@H](CCCCN)NC(=O)[C@@H](NC(=O)[C@H](Cc1ccccc1)NC(=O)[C@@H](NC(=O)[C@H](CC(=O)O)NC(=O)[C@H](CCCNC(=N)N)NC(=O)[C@H](C)NC(=O)[C@H](CO)NC(=O)[C@H](CCCCN)NC(=O)CNC(=O)[C@H](CC(C)C)NC(=O)[C@H](CC(=O)O)NC(=O)[C@H](C)NC(=O)[C@H](Cc1ccc(O)cc1)NC(=O)[C@@H](NC(=O)[C@@H]1CCCN1C(=O)[C@@H]1CCCN1C(=O)[C@@H](NC(=O)[C@H](C)NC(=O)[C@@H](N)CCSC)C(C)C)[C@@H](C)O)C(C)C)[C@@H](C)O)[C@@H](C)CC)C(=O)N[C@@H](Cc1c[nH]c2ccccc12)C(=O)N[C@@H](Cc1ccccc1)C(=O)N[C@@H](CCC(N)=O)C(=O)N[C@@H](CC(N)=O)C(=O)N[C@@H](CCCNC(=N)N)C(=O)N[C@@H](CCCNC(=N)N)C(=O)N[C@@H](CCSC)C(=O)N[C@@H](CCCCN)C(=O)N[C@@H](Cc1c[nH]c2ccccc12)C(=O)N[C@@H](CCCCN)C(=O)N[C@@H](CCCCN)C(=O)O [N‐Ter∆21‐26‐Antp]
The EC50 of the first is lower: 4.5 ± 1.8 µM for the first, over 15 µM for the second.

`CC[C@H](C)[C@H](NC(=O)[C@H](C)NC(=O)[C@H](Cc1c[nH]cn1)NC(=O)[C@H](CC(C)C)NC(=O)CNC(=O)[C@H](Cc1ccccc1)NC(=O)CNC(=O)[C@H](Cc1ccc(O)cc1)NC(=O)CNC(=O)[C@H](CCCCN)NC(=O)[C@@H](NC(=O)[C@H](Cc1ccccc1)NC(=O)[C@@H](NC(=O)[C@H](CC(=O)O)NC(=O)[C@@H](N)CCCNC(=N)N)C(C)C)[C@@H](C)O)C(=O)N[C@@H](Cc1ccc(O)cc1)C(=O)N1CCC[C@H]1C(=O)N[C@@H](CCCNC(=N)N)C(=O)N[C@@H](Cc1c[nH]cn1)C(=O)O` [Tf‐∆(1‐14)N‐Ter] and `CC[C@H](C)[C@H](NC(=O)[C@H](C)NC(=O)[C@@H](N)Cc1c[nH]cn1)C(=O)N[C@@H](Cc1ccc(O)cc1)C(=O)N1CCC[C@H]1C(=O)N[C@@H](CCCNC(=N)N)C(=O)N[C@@H](Cc1c[nH]cn1)C(=O)N[C@@H](CCCNC(=N)N)C(=O)N[C@@H](CC(=O)O)C(=O)N[C@H](C(=O)N[C@@H](Cc1ccccc1)C(=O)N[C@H](C(=O)N[C@@H](CCCCN)C(=O)NCC(=O)N[C@@H](Cc1ccc(O)cc1)C(=O)NCC(=O)N[C@@H](Cc1ccccc1)C(=O)NCC(=O)N[C@@H](CC(C)C)C(=O)O)[C@@H](C)O)C(C)C` [∆(1‐14)N‐Ter‐Tf] cannot be ordered by EC50: over 15 µM for the first, over 15 µM for the second.

`CC[C@H](C)[C@H](NC(=O)[C@H](CCCCN)NC(=O)[C@@H](NC(=O)[C@H](CCC(N)=O)NC(=O)[C@H](CCCNC(=N)N)NC(=O)[C@H](CCCCN)NC(=O)[C@@H](NC(=O)[C@H](Cc1ccccc1)NC(=O)[C@@H](NC(=O)[C@H](CC(=O)O)NC(=O)[C@H](CCCNC(=N)N)NC(=O)[C@H](C)NC(=O)[C@H](CO)NC(=O)[C@H](CCCCN)NC(=O)CNC(=O)[C@H](CC(C)C)NC(=O)[C@H](CC(=O)O)NC(=O)[C@H](C)NC(=O)[C@H](Cc1ccc(O)cc1)NC(=O)[C@@H](N)[C@@H](C)O)C(C)C)[C@@H](C)O)[C@@H](C)CC)C(=O)N[C@@H](Cc1c[nH]c2ccccc12)C(=O)N[C@@H](Cc1ccccc1)C(=O)N[C@@H](CCC(N)=O)C(=O)N[C@@H](CC(N)=O)C(=O)N[C@@H](CCCNC(=N)N)C(=O)N[C@@H](CCCNC(=N)N)C(=O)N[C@@H](CCSC)C(=O)N[C@@H](CCCCN)C(=O)N[C@@H](Cc1c[nH]c2ccccc12)C(=O)N[C@@H](CCCCN)C(=O)N[C@@H](CCCCN)C(=O)O` [∆(1‐4)N‐Ter∆(21‐26)‐Antp] and `CC[C@H](C)[C@H](NC(=O)[C@H](CCCCN)NC(=O)[C@@H](NC(=O)[C@H](CCC(N)=O)NC(=O)[C@H](CCCNC(=N)N)NC(=O)[C@H](CCCCN)NC(=O)[C@@H](NC(=O)[C@H](Cc1ccccc1)NC(=O)[C@@H](NC(=O)[C@H](CC(=O)O)NC(=O)[C@H](CCCNC(=N)N)NC(=O)[C@H](C)NC(=O)[C@H](CO)NC(=O)[C@H](CCCCN)NC(=O)CNC(=O)[C@@H](N)CC(C)C)C(C)C)[C@@H](C)O)[C@@H](C)CC)C(=O)N[C@@H](Cc1c[nH]c2ccccc12)C(=O)N[C@@H](Cc1ccccc1)C(=O)N[C@@H](CCC(N)=O)C(=O)N[C@@H](CC(N)=O)C(=O)N[C@@H](CCCNC(=N)N)C(=O)N[C@@H](CCCNC(=N)N)C(=O)N[C@@H](CCSC)C(=O)N[C@@H](CCCCN)C(=O)N[C@@H](Cc1c[nH]c2ccccc12)C(=O)N[C@@H](CCCCN)C(=O)N[C@@H](CCCCN)C(=O)O` [∆(1‐9)N‐Ter∆(21‐26)‐Antp] cannot be ordered by EC50: over 15 µM for the first, over 15 µM for the second.

Target: T1, Human hexokinase I (HK‐I), recombinant
Test: MST
Conditions: not given

Compared with B1, B2 is 1.6-fold lower in Kd: 15 µM for the first, 9.5 µM for the second. The second binds more tightly here.
